Patent US20260382581A1, “COMPOSITIONS COMPRISING CYTISINE IN THE TREATMENT AND/OR PREVENTION OF ADDICTION IN SUBJECTS IN NEED THEREOF” (published 2026)

Key:
adult smokers = assay: ORCA-1: CO-confirmed quit rate at Week 4 and continuous abstinence Weeks 5-8; details: for Quit Rate / abstinence, End-of-Treatment Week 4 / Quit Rate, Continuous Abstinence Weeks 5 to 8 (4 weeks off treatment): 3.0 mg TID
Experimental: (§1) This was a six-arm, multi-center, double-blind, randomized, placebo-controlled study conducted in male or female adults≥18 years of age, smoking 10+ cigarettes daily, and willing to set a quit date that is 5-7 days after randomization. This study was designed to evaluate the effectiveness of 1.5 mg of cytisine versus placebo using the commercial titration schedule approved in Central and Eastern Europe. The study also evaluated the effectiveness of a simplified TID dosing schedule for 1.5 mg and an increased dose of 3.0 mg (using both the commercial titration (COM) and simplified TID dosing schedules). The overall goal of the study was to obtain estimates of effect size for efficacy and safety endpoints that will be used to inform the design of future Phase 3 studies.
The secondary efficacy endpoint was the quit rate (confirmed by CO<10 ppm) and included an analysis at week 4 (i.e., the end of treatment) and sustained (4-week) abstinence from Week 5 to Week 8 (i.e., off treatment).
The primary outcome (Cigarette Score) and the main secondary abstinence outcomes were subjected to sensitivity analyses. The main secondary abstinence outcomes were the initial quit rate at Week 4 and continued 4-week abstinence through Week 5 to Week 8, confirmed by expired carbon monoxide (CO) of <10 ppm designated as Cess/W5-8/CO Success. The objective was to assess the robustness of the findings from the trial, and to perform alternative analyses that might either confirm the observed results or challenge the conclusions of the trial.

[1] = ORCA-1: treatment emergent adverse events
Experimental: as §1
TEAEs were experienced by approximately half the study population in all treatment arms. The TID dosing schedule had slightly fewer TEAEs overall. Across both schedules, the SOCs with the highest incidence of TEAEs in any treatment arm were infections and infestations, psychiatric disorders, and gastrointestinal disorders. Common TEAEs were AEs that had been previously reported in other studies or within the Investigator's Brochure. All TEAEs were mild or moderate in severity on the commercial schedule and all events except 2 were mild or moderate on the TID schedule: One experienced a severe head injury, and another subject experienced a severe case of influenza. Neither event was considered related to the study drug.

[2] = claude: weekly saliva cotinine levels and change from baseline; details: for Saliva cotinine, LS means difference from placebo, p-value: vs placebo, Bonferroni adjusted
Experimental: The first measurement consisted of biochemically verified continuous vaping abstinence during the last 4 weeks of treatment after 12 weeks of cytisinicline treatment vs placebo. Vaping abstinence during weeks 9-12 was verified with no reported vaping with weekly saliva cotinine levels<10 ng/mL. Primary Analysis with prospective stratification factor odds ratio was 2.64 (p=0.035), primary analysis with site as a stratification factor odds ratio was 3.03 (p=0.017), and primary analysis without any stratification factor odds ratio was 2.62 (p=0.035) (FIG. 59).
A second measurement consisted of biochemically verified continuous vaping abstinence at any time during treatment, with vaping abstinence at Week 3-6 or Week 6-9 for of cytisinicline treatment vs placebo. 7-day point prevalence rates were compared for vaping abstinence (Week 2 to 12) (FIG. 62). An additional measurement included reduction in daily vaping as measured by cotinine, where cytisinicline treatment vs placebo for a reduction in nicotine vaping using weekly quantitative cotinine levels from Week 2 to Week 12. Safety was assessed by adverse effects and serious adverse effects, considering number, severity, and attribution to study drug. Early beneficial effect was observed and continued throughout the 12 weeks with some weeks at or close to statistical significance (weeks 4, 6, 7, 8, 9, and 12) (FIGS. 63-65). Cotinine values less than 1 were converted to 1 due to extreme asymmetry (FIG. 65)
Cotinine: The data were analyzed by visit and also using a repeated measures model. There are two longitudinal figures for the graphs of the results from the repeated measure model: arm-specific probability model estimates and arm effect odds ratio model estimates (FIGS. 51-55). Cotinine values less than 1 were converted to 1 due to asymmetry.

[3] = 1.5 mg downward titration (n = 51)
[4] = 3.0 mg downward titration (n = 50)

**Q.** What does the source list for `O=c1cccc2n1C[C@@H]1CNC[C@H]2C1`?
**A.** OR, abstinence Weeks 5 to 8 (adult smokers; 1.5 mg COM vs placebo): 3.23 (95% CI: 0.86, 14.85); OR, quit rate at Week 4 (adult smokers; 1.5 mg COM vs placebo): 5.59 (95% CI: 2.03, 16.29); OR, abstinence Weeks 5 to 8 (adult smokers; 1.5 mg TID vs placebo): 4.33 (95% CI: 1.21, 19.30); OR, quit rate at Week 4 (adult smokers; 1.5 mg TID vs placebo): 5.81 (95% CI: 2.12, 16.87); OR, abstinence Weeks 5 to 8 (adult smokers; 3.0 mg COM vs placebo): 2.24 (95% CI: 0.55, 10.82); OR, quit rate at Week 4 (adult smokers; 3.0 mg COM vs placebo): 5.38 (95% CI: 1.95, 15.72); Quit Rate / abstinence, End-of-Treatment Week 4 (adult smokers; listed as CYT): 54%; Quit Rate, Continuous Abstinence Weeks 5 to 8 (4 weeks off treatment) (adult smokers; listed as CYT): 30%; Quit Rate / abstinence, End-of-Treatment Week 4 (adult smokers; listed as Cytisinicline): 54%; Quit Rate, Continuous Abstinence Weeks 5 to 8 (4 weeks off treatment) (adult smokers; listed as Cytisinicline): 30%; Quit Rate / abstinence, End-of-Treatment Week 4 (adult smokers; listed as cytisine): 54%; Quit Rate, Continuous Abstinence Weeks 5 to 8 (4 weeks off treatment) (adult smokers; listed as cytisine): 30%; Drug-placebo difference, quit rate (adult smokers; 4 weeks off treatment): 22.2%; OR, quit rate (adult smokers; 4 weeks off treatment vs placebo, 95% CI 1.54 to 16.50): 5.0; odds ratios vs NRT, Zyban and Chantix (adult smokers; 4 weeks, end of treatment, 4 weeks off treatment): consistently better than that of NRT, Zyban®, and Chantix®; odds ratios vs Chantix (adult smokers; 4 weeks, end of treatment, 4 weeks off treatment, 95% CIs overlap): consistently better than that of Chantix®; odds of smoking abstinence at Weeks 6, 7 and 8 (adult smokers; TID schedule compared with COM schedule, versus placebo): higher odds of smoking abstinence; Drug-placebo difference, quit rate (adult smokers; end of treatment / 4 weeks treatment): 38.3%; OR, quit rate (adult smokers; end of treatment / 4 weeks treatment vs placebo, 95% CI 2.47 to 16.11): 6.3; continuous abstinence vs commercial 25-day 1.5 mg titration schedule (adult smokers; methods disclosed (TID dosing), FIG. 7): surprisingly higher; Abnormal dreams ([1]; 1.5 mg TID (n = 52)): 4 (8%) n (%); At least 1 AE ([1]; 1.5 mg TID (n = 52)): 20 (39%) n (%); Constipation ([1]; 1.5 mg TID (n = 52)): 1 (2%) n (%); Fatigue ([1]; 1.5 mg TID (n = 52)): 3 (6%) n (%); Headache ([1]; 1.5 mg TID (n = 52)): 6 (12%) n (%); Insomnia ([1]; 1.5 mg TID (n = 52)): 4 (8%) n (%); Nausea ([1]; 1.5 mg TID (n = 52)): 1 (2%) n (%); URTI ([1]; 1.5 mg TID (n = 52)): 5 (10%) n (%); Abnormal dreams [1, 3]: 4 (8%) n (%); At least 1 AE [1, 3]: 29 (57%) n (%); Fatigue [1, 3]: 1 (2%) n (%); Headache [1, 3]: 1 (2%) n (%); Insomnia [1, 3]: 3 (6%) n (%); Nausea [1, 3]: 5 (10%) n (%); URTI [1, 3]: 3 (6%) n (%); overall safety ([1]; 1.5 mg or 3.0 mg, both schedules): no safety concerns; Abnormal dreams ([1]; 3.0 mg TID (n = 50)): 3 (6%) n (%); At least 1 AE ([1]; 3.0 mg TID (n = 50)): 21 (42%) n (%); Constipation ([1]; 3.0 mg TID (n = 50)): 3 (6%) n (%); Fatigue ([1]; 3.0 mg TID (n = 50)): 1 (2%) n (%); Headache ([1]; 3.0 mg TID (n = 50)): 2 (4%) n (%); Insomnia ([1]; 3.0 mg TID (n = 50)): 3 (6%) n (%); Nausea ([1]; 3.0 mg TID (n = 50)): 3 (6%) n (%); URTI ([1]; 3.0 mg TID (n = 50)): 3 (6%) n (%); Abnormal dreams [1, 4]: 7 (14%) n (%); At least 1 AE [1, 4]: 23 (46%) n (%); Fatigue [1, 4]: 2 (4%) n (%); Headache [1, 4]: 1 (2%) n (%); Insomnia [1, 4]: 4 (8%) n (%); Nausea [1, 4]: 3 (6%) n (%); URTI [1, 4]: 2 (4%) n (%); Abnormal dreams ([1]; pooled cytisinicline (n = 203)): 18 (9%) n (%); At least 1 AE ([1]; pooled cytisinicline (n = 203)): 93 (46%) n (%); Constipation ([1]; pooled cytisinicline (n = 203)): 4 (2%) n (%); Fatigue ([1]; pooled cytisinicline (n = 203)): 7 (3%) n (%); Headache ([1]; pooled cytisinicline (n = 203)): 10 (5%) n (%); Insomnia ([1]; pooled cytisinicline (n = 203)): 14 (7%) n (%); Nausea ([1]; pooled cytisinicline (n = 203)): 12 (6%) n (%); URTI ([1]; pooled cytisinicline (n = 203)): 13 (6%) n (%); Saliva cotinine, mean ([2]; Baseline, N 105): 316.186 ng/mL; Saliva cotinine, median ([2]; Baseline, N 105): 303.000 ng/mL; Saliva cotinine, LS means difference from placebo, p-value ([2]; Week 7): 1.0000; Saliva cotinine, LS means difference from placebo, p-value ([2]; Week 8): 1.0000; Saliva cotinine, LS means difference from placebo, p-value ([2]; Week 9): 1.0000; Saliva cotinine, LS means difference from placebo, p-value ([2]; Week 10): 1.0000; Saliva cotinine, LS means difference from placebo, p-value ([2]; Week 11): 1.0000; Saliva cotinine, LS means difference from placebo, p-value ([2]; Week 12): 1.0000; Saliva cotinine, LS means difference from placebo, p-value ([2]; Week 16): 1.0000
